This passage reports C72 h results from patent US10945997B2, “Polymer derivative of macrolide immunosuppressant” (Nippon Kayaku Kabushiki Kaisha, priority 2016, dated 2021).

The conditions of the data set: rat, in vivo, iv, 5 mg/kg.

Substance “Tacrolimus-Bonded Polyethylene Glycol-αβ-Polyaspartic Acid Block Copolymer [Comparative Example 1]” gave a C72 h of 0.361 ng/mL.
